# ChEMBL document CHEMBL5108049, “Development and Characterization of Type I, Type II, and Type III LIM-Kinase Chemical Probes” (J Med Chem, 2022)
# By UniProt entry, the sequences of proteins in these tests, tags left out. Where a name states a change or a piece, a line headed by the entry shows the natural chain unless it says otherwise.
# UniProt P53671: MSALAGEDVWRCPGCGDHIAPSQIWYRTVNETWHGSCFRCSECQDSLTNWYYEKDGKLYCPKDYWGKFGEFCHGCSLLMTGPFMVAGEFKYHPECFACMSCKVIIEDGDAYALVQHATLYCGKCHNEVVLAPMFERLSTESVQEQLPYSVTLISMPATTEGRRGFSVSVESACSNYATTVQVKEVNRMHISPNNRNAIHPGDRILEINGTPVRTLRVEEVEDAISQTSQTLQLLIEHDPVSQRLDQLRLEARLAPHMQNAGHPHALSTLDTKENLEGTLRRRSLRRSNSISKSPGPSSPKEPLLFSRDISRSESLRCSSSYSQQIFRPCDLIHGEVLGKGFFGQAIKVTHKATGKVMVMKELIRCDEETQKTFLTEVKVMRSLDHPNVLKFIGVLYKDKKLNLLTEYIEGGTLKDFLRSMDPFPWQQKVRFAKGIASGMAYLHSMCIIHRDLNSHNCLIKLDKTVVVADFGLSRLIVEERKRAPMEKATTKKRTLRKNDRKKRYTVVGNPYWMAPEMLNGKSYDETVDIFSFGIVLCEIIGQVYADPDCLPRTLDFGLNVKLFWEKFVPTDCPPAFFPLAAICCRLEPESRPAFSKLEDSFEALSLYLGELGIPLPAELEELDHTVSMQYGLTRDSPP
# pIC50: −log10 of the molar value.
# Target: LIM domain kinase 2 (Homo sapiens, UniProt P53671)
# Experiment: Inhibition of LIMK2 (unknown origin)
smiles,measurement,value
Cc1c[nH]c2ncnc(-c3ccc(NC(=O)N(CCO)c4ccccc4)cc3)c12,pIC50,7.62
